The source of these data is PubChem BioAssay AID1049 (The Scripps Research Institute Molecular Screening Center, 2008).

Only a part is listed here, and it is no random draw. Activity calls are given as the source filed them. No stated cut-off is given here; in the data, active means TR-FRET ratio above about 2000; inactive means the rest.

A short description of the assay: TR-FRET signal artefacts, primary screen, artefact control for PPARgamma SRC-2 agonist project, biochemical (AID 1049). The following applies: TR-FRET artefact counter-screen; at 8 µM; stronger effect = higher value. Background: In TR-FRET formats the signal depends on donor and acceptor labels being close together.
`CP(=O)(Oc1ccccc1)OC(c1ccccc1)C(F)(F)F` (stereo not given): the TR-FRET ratio was inactive: 1570.

As to `Cc1cccc(C)c1OP(C)(=O)Nc1ccc(SC(F)(F)F)cc1` (stereo not given), the TR-FRET ratio is inactive: 1480. Next, `Cc1cc(C)cc(OP(C)(=O)Nc2ccc(SC(F)(F)F)cc2)c1` (stereo not given): inactive: 1470. With `CP(=O)(NC(=O)Nc1ccccc1)Oc1ccccc1` (stereo not given), the TR-FRET ratio is inactive: 1740.

For `CCOC(=O)c1ccc(NP(C)(=O)Oc2ccc(OC)cc2)cc1` (stereo not given), the TR-FRET ratio was inactive: 1370. As for `CCOP(C)(=S)SCC(=O)NC(C)C(=O)O` (stereo not given), the figure is inactive: 1600; as for `CP(=O)(Nc1ccccn1)Oc1ccc(Cl)cc1` (stereo not given), inactive: 1570. In the case of `CP(=S)(Nn1cnnc1)Oc1ccccc1` (stereo not given), the TR-FRET ratio is inactive: 1300.

In the case of `CP(=O)(Nc1ccccc1Br)Oc1ccccc1` (stereo not given), the TR-FRET ratio was inactive: 1590. On to `COc1ccccc1OP(C)(=O)Nc1ccccc1` (stereo not given), for which the TR-FRET ratio was inactive: 1630. As for `O=[N+]([O-])c1ccc2c(c1)C=Nc1ccccc1O2`, the TR-FRET ratio was inactive: 1640. Take `Cc1cccc(C)c1OP(C)(N)=O` (stereo not given): the TR-FRET ratio was inactive: 1730. For `CC(C)(C)c1ccc(OP(C)(=O)Nc2ccc(SC(F)(F)F)cc2)cc1` (stereo not given), the TR-FRET ratio is inactive: 1350. Next, `Cc1ccc(NP(C)(=O)Oc2ccccc2)c(C)c1` (stereo not given): inactive: 1380; `COc1ccccc1OP(C)(=O)Nc1ccc(C)cc1` (stereo not given): inactive: 1670. Next, `CCOC(=O)c1ccc(NP(C)(=O)Oc2ccccc2)cc1` (stereo not given): inactive: 1680.

For the compound `Cc1cc(C)cc(OP(C)(N)=O)c1` (stereo not given), the TR-FRET ratio was inactive: 1620. As for `COc1ccc(OP(C)(=O)Nc2cccc(F)c2)cc1` (stereo not given), the figure is inactive: 1530; as for `COc1ccccc1OP(C)(=O)Nc1cc(Cl)ccc1C` (stereo not given), inactive: 1620; as for `CCN(CC)CCCOC(=O)C(O)(c1ccccc1)c1ccccc1`, inactive: 1400. Consider `CCOC(=O)c1ccc(NP(C)(=O)Oc2cc(C)cc(C)c2)cc1` (stereo not given), for which the TR-FRET ratio is inactive: 1440. Regarding `Cc1cc(C)cc(OP(C)(=O)Nc2ccc(C)cc2C)c1` (stereo not given), the TR-FRET ratio was inactive: 1660. As for `Cc1ccc(C)c(NP(C)(=O)Oc2ccccc2)c1` (stereo not given), the figure is inactive: 1680; as for `Cc1cc(C)cc(OP(C)(=O)Nc2ccccn2)c1` (stereo not given), inactive: 1550. Next, `CP(=O)(Nc1cccc(Br)c1)Oc1ccccc1` (stereo not given): inactive: 1730; `CC1=NCCc2c1[nH]c1ccccc21.O=[N+]([O-])c1cc([N+](=O)[O-])c(O)c([N+](=O)[O-])c1`: inactive: 1740; `CN1CCCCC1COC(=O)C1(O)c2ccccc2CCc2ccccc21` (stereo not given): inactive: 1530.

As to `COc1ccccc1OP(C)(=O)Nc1c(C)cccc1C` (stereo not given), the TR-FRET ratio is inactive: 1450.

For the compound `CCCOc1ccc(NP(C)(=O)Oc2ccc(Cl)cc2)cc1` (stereo not given), the TR-FRET ratio is inactive: 1410. Next, `CP(=O)(Nc1ccc(SC(F)(F)F)cc1)Oc1ccccc1` (stereo not given): inactive: 1560.

Turning to `O=[N+]([O-])c1cc([N+](=O)[O-])c(-n2nnc3ccccc32)c([N+](=O)[O-])c1`, the TR-FRET ratio was inactive: 1600. In the case of `Cc1nc2ccc3ccccc3c2s1.O=[N+]([O-])c1cc([N+](=O)[O-])c(O)c([N+](=O)[O-])c1`, the TR-FRET ratio was inactive: 1280. Turning to `CCOP(C)(=S)SCC(=O)NC(C)(CC)C(=O)O` (stereo not given), the TR-FRET ratio is inactive: 1620. As to `CP(=O)(Nc1ccc2c(c1)OCCO2)Oc1ccccc1` (stereo not given), the TR-FRET ratio was inactive: 1720. As for `Cc1ccccc1NP(C)(=O)Nc1ccccc1C`, the figure is inactive: 1460; as for `COc1ccc(OP(C)(=O)Nc2cccc(Br)c2)cc1` (stereo not given), inactive: 1430. Next, `CN(C)CCOC(=O)C(O)(c1ccccc1)C1CCCCC1` (stereo not given): inactive: 1530; `COc1ccc(NP(C)(=O)Oc2ccccc2OC)cc1` (stereo not given): inactive: 1810. Turning to `O=[N+]([O-])c1cc([N+](=O)[O-])c(NCC2CCS(=O)(=O)C2)c([N+](=O)[O-])c1` (stereo not given), the TR-FRET ratio was inactive: 1500. In the case of `CCOC(=O)c1ccc(NP(C)(=O)Oc2ccc(F)cc2)cc1` (stereo not given), the TR-FRET ratio is inactive: 1620. As to `COc1ccc(OP(C)(=O)Nc2ccc(SC(F)(F)F)cc2)cc1` (stereo not given), the TR-FRET ratio is inactive: 1580. `CCN(CC)CCCOC(=O)C(O)(c1ccccc1)C1CCCCC1` (stereo not given): the TR-FRET ratio is inactive: 1580. On to `CP(=O)(Nc1ccccc1)Oc1ccc(F)cc1` (stereo not given), for which the TR-FRET ratio is inactive: 1580. In the case of `CP(=O)(Nc1ccccc1F)Oc1ccccc1` (stereo not given), the TR-FRET ratio is inactive: 1470. Next, `CC(C)c1ccc(OP(C)(=O)Nc2ccc(SC(F)(F)F)cc2)cc1` (stereo not given): inactive: 1780; `O=C(OCCN1CCN(CCOCc2ccccc2)CC1)C(O)(c1ccccc1)c1ccccc1`: inactive: 1340; `COc1ccc(OP(C)(=O)Nc2ccccn2)cc1` (stereo not given): inactive: 1640. As for `CN(C)CCOC(=O)C(O)(c1ccccc1)C1CCCC1` (stereo not given), the TR-FRET ratio is inactive: 1600.

Turning to `Cc1c(NP(C)(=O)Oc2ccc(C(C)C)cc2)c(=O)n(-c2ccccc2)n1C` (stereo not given), the TR-FRET ratio was inactive: 1570.

Take `O=[N+]([O-])c1cc([N+](=O)[O-])c(Nc2ccccn2)c([N+](=O)[O-])c1`: the TR-FRET ratio was inactive: 1610. As for `COc1ccccc1OP(C)(=O)Nc1ccc(C)cc1C` (stereo not given), the figure is inactive: 1540. As for `CP(=O)(Nc1ccccn1)Oc1ccccc1` (stereo not given), the TR-FRET ratio was inactive: 1480.

For `CCc1ccc(OP(C)(=O)O)cc1`, the TR-FRET ratio is inactive: 1630. For the compound `Cc1cc(C)cc(OP(C)(=O)Nc2cccc(C(F)(F)F)c2)c1` (stereo not given), the TR-FRET ratio is inactive: 1640.

`COc1ccccc1OP(C)(=O)Nc1ccc(C)c(C)c1` (stereo not given): the TR-FRET ratio is inactive: 1480. Take `COc1ccc(OP(C)(=O)Nc2ccccc2Br)cc1` (stereo not given): the TR-FRET ratio is inactive: 1690. As for `Cc1nc2ccc3ccccc3c2o1.O=[N+]([O-])c1cc([N+](=O)[O-])c(O)c([N+](=O)[O-])c1`, the figure is inactive: 1440. Next, `CP(=O)(Nc1ccc(Cl)cc1Cl)Oc1ccccc1` (stereo not given): inactive: 1680; `CP(=O)(OCCOc1ccccc1)OCCOc1ccccc1`: inactive: 1760. Next, `CCOC(=O)c1ccc(NP(C)(=O)Oc2ccc(Cl)cc2)cc1` (stereo not given): inactive: 1390; `CP(=O)(OC12CC3CC(CC(C3)C1)C2)OC12CC3CC(CC(C3)C1)C2`: inactive: 1550; `COc1ccc(OP(C)(=O)Nc2ccc(Br)cc2)cc1` (stereo not given): inactive: 1590.

As for `CCN(CC)CC(O)COC(=O)C(O)(c1ccccc1)C1CCCCC1` (stereo not given), the TR-FRET ratio is inactive: 1410. Regarding `COc1ccccc1OP(C)(=O)Nc1c(C)n(C)n(-c2ccccc2)c1=O` (stereo not given), the TR-FRET ratio is inactive: 1720.

Take `CCc1ccc(OP(C)(=O)Nc2cccnc2)cc1` (stereo not given): the TR-FRET ratio is inactive: 1400. On to `CP(=O)(Oc1ccccc1)N1CCOC1=O` (stereo not given), for which the TR-FRET ratio was inactive: 1550. Next, `COc1ccccc1OP(C)(=O)Nc1ccccc1Br` (stereo not given): inactive: 1560; `CC(C)(C)c1ccc(OP(C)(=O)O)cc1`: inactive: 1500.

As for `CP(=O)(Nc1ccc(Cl)cc1)Oc1ccc(F)cc1` (stereo not given), the TR-FRET ratio was inactive: 1580.

As for `CN(C)C(=O)c1c([N+](=O)[O-])cc([N+](=O)[O-])cc1[N+](=O)[O-]`, the TR-FRET ratio was inactive: 1660.
